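Compound exposure: 48 hours, 5 concentrations, 96-well plates. GI50: concentration for 50% inhibition of growth. TGI: total growth inhibition.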
How the values were obtained:
Experiment in all cases: NCI-60 cell line screen, 48 h
NCI-H23 lung = test system: NCI-H23 lung
SN12C renal = test system: SN12C renal
SK-MEL-28 melanoma = test system: SK-MEL-28 melanoma
KM20L2 colon = test system: KM20L2 colon
HOP-62 NSCLC = test system: HOP-62 NSCLC
UO-31 renal = test system: UO-31 renal
OVCAR-5 ovarian = test system: OVCAR-5 ovarian
NCI-H322M lung = test system: NCI-H322M lung
U251 CNS = test system: U251 CNS
SNB-75 CNS = test system: SNB-75 CNS
RPMI-8226 leukemia = test system: RPMI-8226 leukemia
NCI-H460 lung = test system: NCI-H460 lung
DMS 273 small cell lung = test system: DMS 273 small cell lung
HOP-92 NSCLC = test system: HOP-92 NSCLC
KM12 colon = test system: KM12 colon
SK-OV-3 ovarian = test system: SK-OV-3 ovarian
SK-MEL-2 melanoma = test system: SK-MEL-2 melanoma
K-562 leukemia = test system: K-562 leukemia
EKVX NSCLC = test system: EKVX NSCLC
786-0 renal = test system: 786-0 renal
HCC-2998 colon = test system: HCC-2998 colon
SK-MEL-5 melanoma = test system: SK-MEL-5 melanoma
SF-539 CNS = test system: SF-539 CNS
ACHN renal = test system: ACHN renal
HOP-18 NSCLC = test system: HOP-18 NSCLC
CCRF-CEM leukemia = test system: CCRF-CEM leukemia
HCT-116 colon = test system: HCT-116 colon
SNB-19 CNS = test system: SNB-19 CNS
DMS 114 small cell lung = test system: DMS 114 small cell lung
OVCAR-8 ovarian = test system: OVCAR-8 ovarian
UACC-257 melanoma = test system: UACC-257 melanoma
A549 NSCLC = test system: A549 NSCLC
RXF 393 renal = test system: RXF 393 renal
OVCAR-3 ovarian = test system: OVCAR-3 ovarian
MALME-3M melanoma = test system: MALME-3M melanoma
SW-620 colon = test system: SW-620 colon
SF-268 CNS = test system: SF-268 CNS
COLO 205 colon = test system: COLO 205 colon
OVCAR-4 ovarian = test system: OVCAR-4 ovarian
M19-MEL melanoma = test system: M19-MEL melanoma
IGROV1 ovarian = test system: IGROV1 ovarian
SF-295 CNS = test system: SF-295 CNS
LXFL 529 NSCLC = test system: LXFL 529 NSCLC
DLD-1 colon = test system: DLD-1 colon
XF 498 CNS = test system: XF 498 CNS
CAKI-1 renal = test system: CAKI-1 renal
MOLT-4 leukemia = test system: MOLT-4 leukemia
HCT-15 colon = test system: HCT-15 colon
SR leukemia = test system: SR leukemia
HL-60(TB) leukemia = test system: HL-60(TB) leukemia
LOX IMVI melanoma = test system: LOX IMVI melanoma
M14 melanoma = test system: M14 melanoma
NCI-H226 lung = test system: NCI-H226 lung
SNB-78 CNS = test system: SNB-78 CNS
UACC-62 melanoma = test system: UACC-62 melanoma
TK-10 renal = test system: TK-10 renal
RXF-631 renal = test system: RXF-631 renal
HT29 colon = test system: HT29 colon

Molecule `N.N.N.N.N.[Cl-].[Co+3].n1n[n-]c(-c2nn[n-]n2)n1` has a GI50 (NCI-H23 lung) greater than 100 µM, a TGI (NCI-H23 lung) greater than 100 µM and a GI50 (SN12C renal) greater than 100 µM. It also gave a TGI (SN12C renal) greater than 100 µM, a GI50 (SK-MEL-28 melanoma) greater than 100 µM and a TGI (SK-MEL-28 melanoma) greater than 100 µM. For the same molecule, the GI50 (KM20L2 colon) was greater than 100 µM, the TGI (KM20L2 colon) was greater than 100 µM and the GI50 (HOP-62 NSCLC) was greater than 100 µM. For the same molecule, the TGI (HOP-62 NSCLC) was greater than 100 µM, the GI50 (UO-31 renal) was greater than 100 µM and the TGI (UO-31 renal) was greater than 100 µM. It also gave a GI50 (OVCAR-5 ovarian) greater than 100 µM, a TGI (OVCAR-5 ovarian) greater than 100 µM and a GI50 (NCI-H322M lung) greater than 100 µM. The TGI (NCI-H322M lung) was greater than 100 µM, the GI50 (U251 CNS) was greater than 100 µM and the TGI (U251 CNS) was greater than 100 µM. It also gave a GI50 (SNB-75 CNS) greater than 100 µM, a TGI (SNB-75 CNS) greater than 100 µM and a GI50 (RPMI-8226 leukemia) greater than 100 µM. It also gave a TGI (RPMI-8226 leukemia) greater than 100 µM, a GI50 (NCI-H460 lung) greater than 100 µM and a TGI (NCI-H460 lung) greater than 100 µM. It also gave a GI50 (DMS 273 small cell lung) greater than 100 µM, a TGI (DMS 273 small cell lung) greater than 100 µM and a GI50 (HOP-92 NSCLC) greater than 100 µM. The TGI (HOP-92 NSCLC) was greater than 100 µM, the GI50 (KM12 colon) was greater than 100 µM and the TGI (KM12 colon) was greater than 100 µM. It also gave a GI50 (SK-OV-3 ovarian) greater than 100 µM, a TGI (SK-OV-3 ovarian) greater than 100 µM and a GI50 (SK-MEL-2 melanoma) greater than 100 µM. For the same molecule, the TGI (SK-MEL-2 melanoma) was greater than 100 µM, the GI50 (K-562 leukemia) was greater than 100 µM and the TGI (K-562 leukemia) was greater than 100 µM. It also gave a GI50 (EKVX NSCLC) greater than 100 µM, a TGI (EKVX NSCLC) greater than 100 µM and a GI50 (786-0 renal) greater than 100 µM. For the same molecule, the TGI (786-0 renal) was greater than 100 µM, the GI50 (HCC-2998 colon) was greater than 100 µM and the TGI (HCC-2998 colon) was greater than 100 µM. The GI50 (SK-MEL-5 melanoma) was greater than 100 µM, the TGI (SK-MEL-5 melanoma) was greater than 100 µM and the GI50 (SF-539 CNS) was greater than 100 µM. For the same molecule, the TGI (SF-539 CNS) was greater than 100 µM, the GI50 (ACHN renal) was greater than 100 µM and the TGI (ACHN renal) was greater than 100 µM. The GI50 (HOP-18 NSCLC) was greater than 100 µM, the TGI (HOP-18 NSCLC) was greater than 100 µM and the GI50 (CCRF-CEM leukemia) was greater than 100 µM. For the same molecule, the TGI (CCRF-CEM leukemia) was greater than 100 µM, the GI50 (HCT-116 colon) was greater than 100 µM and the TGI (HCT-116 colon) was greater than 100 µM. For the same molecule, the GI50 (SNB-19 CNS) was greater than 100 µM, the TGI (SNB-19 CNS) was greater than 100 µM and the GI50 (DMS 114 small cell lung) was greater than 100 µM. It also gave a TGI (DMS 114 small cell lung) greater than 100 µM, a GI50 (OVCAR-8 ovarian) greater than 100 µM and a TGI (OVCAR-8 ovarian) greater than 100 µM. For the same molecule, the GI50 (UACC-257 melanoma) was greater than 100 µM, the TGI (UACC-257 melanoma) was greater than 100 µM and the GI50 (A549 NSCLC) was greater than 100 µM. The TGI (A549 NSCLC) was greater than 100 µM, the GI50 (RXF 393 renal) was greater than 100 µM and the TGI (RXF 393 renal) was greater than 100 µM. The GI50 (OVCAR-3 ovarian) was greater than 100 µM, the TGI (OVCAR-3 ovarian) was greater than 100 µM and the GI50 (MALME-3M melanoma) was greater than 100 µM. It also gave a TGI (MALME-3M melanoma) greater than 100 µM, a GI50 (SW-620 colon) greater than 100 µM and a TGI (SW-620 colon) greater than 100 µM. For the same molecule, the GI50 (SF-268 CNS) was greater than 100 µM, the TGI (SF-268 CNS) was greater than 100 µM and the GI50 (COLO 205 colon) was greater than 100 µM. It also gave a TGI (COLO 205 colon) greater than 100 µM, a GI50 (OVCAR-4 ovarian) greater than 100 µM and a TGI (OVCAR-4 ovarian) greater than 100 µM. It also gave a GI50 (M19-MEL melanoma) greater than 100 µM, a TGI (M19-MEL melanoma) greater than 100 µM and a GI50 (IGROV1 ovarian) greater than 100 µM. The TGI (IGROV1 ovarian) was greater than 100 µM, the GI50 (SF-295 CNS) was greater than 100 µM and the TGI (SF-295 CNS) was greater than 100 µM. It also gave a GI50 (LXFL 529 NSCLC) greater than 100 µM, a TGI (LXFL 529 NSCLC) greater than 100 µM and a GI50 (DLD-1 colon) greater than 100 µM. For the same molecule, the TGI (DLD-1 colon) was greater than 100 µM, the GI50 (XF 498 CNS) was greater than 100 µM and the TGI (XF 498 CNS) was greater than 100 µM. For the same molecule, the GI50 (CAKI-1 renal) was greater than 100 µM, the TGI (CAKI-1 renal) was greater than 100 µM and the GI50 (MOLT-4 leukemia) was greater than 100 µM. For the same molecule, the TGI (MOLT-4 leukemia) was greater than 100 µM, the GI50 (HCT-15 colon) was greater than 100 µM and the TGI (HCT-15 colon) was greater than 100 µM. For the same molecule, the GI50 (SR leukemia) was greater than 100 µM, the TGI (SR leukemia) was greater than 100 µM and the GI50 (HL-60(TB) leukemia) was greater than 100 µM. The TGI (HL-60(TB) leukemia) was greater than 100 µM, the GI50 (LOX IMVI melanoma) was greater than 100 µM and the TGI (LOX IMVI melanoma) was greater than 100 µM. For the same molecule, the GI50 (M14 melanoma) was greater than 100 µM, the TGI (M14 melanoma) was greater than 100 µM and the GI50 (NCI-H226 lung) was greater than 100 µM. The TGI (NCI-H226 lung) was greater than 100 µM, the GI50 (SNB-78 CNS) was greater than 100 µM and the TGI (SNB-78 CNS) was greater than 100 µM. It also gave a GI50 (UACC-62 melanoma) greater than 100 µM, a TGI (UACC-62 melanoma) greater than 100 µM and a GI50 (TK-10 renal) greater than 100 µM. It also gave a TGI (TK-10 renal) greater than 100 µM, a GI50 (RXF-631 renal) greater than 100 µM and a TGI (RXF-631 renal) greater than 100 µM. The GI50 (HT29 colon) was greater than 100 µM and the TGI (HT29 colon) was greater than 100 µM.
